# Screening results from PubChem BioAssay.
# DENV2 CPE rescue: inhibitors of DENV2 cytopathic effect, primary screen, cell-based, plate reader, single concentration. DENV2-infected cells, cytopathic effect rescue. CPE inhibition, % at 9.99 µM. actives 1.7% (n = 350,000); in the data active = CPE inhibition above about 20%, passing the limit was not always enough; inconclusive = no clear call, values can overlap the other calls; tested in BHK-21 cells;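 note: 0% = median of neutral control wells and 100% = median of positive control wells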
# Yeast UUG start: modulators of start codon recognition fidelity in yeast. S. cerevisiae UUG-firefly luciferase reporter, luminescence/redox ratio. activity score, % at 18.7 µM. 0.13% of 350,000 active. AID 602363;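 active = replicate mean at a twofold rise or more, about +100% in these data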;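 also: firefly luciferase made from a UUG start codon reports start codon fidelity; reporter light over untreated wells divided by growth signal over untreated wells; some hits fall short of that in this replicate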
# E-sel inducer: E-selectin induction in HUVECs, primary screen, imaging, HUVEC, immunofluorescence imaging, single point; actives 0.37% (n = 260,000); AID 686992, 2013; P16581; normalized: neutral wells 0, TNF-alpha wells 100; activation, % at 7.58 µM;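 active = mean E-selectin-positive cell signal at least 10% of the positive control, reached in at least 60% of replicates, without over 20% cell loss; inconclusive = no rule given, readout overlaps actives, possibly toxicity-flagged; inactive = the rest, including those meeting only one limit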
#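 Test system: HUVEC; input: 3,000 HUVEC/well; measured by: immunofluorescence imaging; read-out: % PE-positive cells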
# Cneo AK release: Cryptococcus neoformans cell lysis inducers, primary screen, AK release luminescence, single concentration; lysis activity, % at 15 µM; C. neoformans lysis, adenylate kinase release luminescence, 4 h; normalised: neutral wells 0, clomiphene wells 100; actives 0.2% (n = 360,000);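 active = mean lysis activity across replicates of at least 80%, whatever share of replicates individually reach that level; inactive = mean lysis activity below 80%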
#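 Material – Cryptococcus neoformans yeast cells · Quantity – 5 × 10^6 yeast cells/mL · Buffer or medium – YPD medium · Compound – single dose · Timing – 4 h static compound exposure, 37 °C, read 1 h post-reagent · Signal – adenylate kinase release luminescence · Read-out basis – lysis from increased AK signal · Benchmarks – Clomiphene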
# * marks the source's active call; other numbers are inactive results; ? = inconclusive; / = not tested or not shown; ! = a repeat was not active. A selection: hits, their analogues and other compounds. The true share with any hit is near 1.8%.
# Abbreviations: A = DENV2 CPE rescue; B = Yeast UUG start; C = E-sel inducer; D = Cneo AK release
C/C=C/c1ccc([C@@H]2[C@H](CO)N(Cc3cncnc3)C23CN(C(=O)COC)C3)cc1
  A: 22*; B: /; C: 0; D: /

CCC(=O)N1CC2(C1)[C@H](c1ccccc1)[C@H](CO)N2CC1CCOCC1
  A: 70*; B: /; C: 0; D: /

O=C(NC1CCCCC1)N1CC2(C1)[C@H](c1ccccc1)[C@H](CO)N2CC1CCOCC1
  A: 4; B: /; C: 0; D: /

C/C=C/c1ccc([C@H]2[C@@H](CO)N(Cc3cncnc3)C23CN(C(=O)CC)C3)cc1
  A: 0; B: /; C: 0; D: /

CCC(=O)N1CC2(C1)[C@@H](c1ccccc1)[C@@H](CO)N2CC1CCOCC1
  A: -5; B: /; C: 0; D: /

O=C(NC1CCCC1)N1CC2(C1)[C@H](c1ccccc1)[C@@H](CO)N2CC1CCOCC1
  A: 38*; B: /; C: 0; D: /

C[C@H](CO)N1C[C@H](C)[C@H](CN(C)C(=O)c2ccccc2)OCCCC[C@H](C)Oc2ccc(NS(=O)(=O)c3cccs3)cc2C1=O
  A: -8; B: 2; C: /; D: -3

O=C(NC1CCCC1)C(c1ccco1)N1CCN(c2c(Cl)cncc2Cl)CC1 (stereo not given)
  A: 24*; B: /; C: 2; D: /

O=C(NC1CCCC1)C(c1ccco1)N1CCC(O)(c2ccc(Cl)cc2)CC1 (stereo not given)
  A: -4; B: /; C: 0; D: /

CN(C)C(=O)c1cccc(-c2ccc(C3[C@H]4CNC[C@@H]3N4Cc3cc(F)ccc3F)cc2)c1 (stereo not given in full)
  A: 82*!; B: /; C: 0; D: /

O=C1CCc2cc(S(=O)(=O)NCCc3ccc(Cl)cc3)cc3c2N1CC3
  A: 97*; B: -4; C: -4; D: -2

COc1ccc(CCNS(=O)(=O)c2cc3c4c(c2)CCN4C(=O)CC3)cc1OC
  A: -6; B: /; C: 2; D: /

CN(CC(=O)Nc1ccc(F)cc1)C(=O)COC(=O)c1nc(Cl)ccc1Cl
  A: 73*; B: -23; C: 0; D: 1

COc1ccc2c3c([nH]c2c1)[C@@H](CO)N(C(=O)c1cccc(F)c1)CC31CCN(S(=O)(=O)c2cccs2)CC1
  A: -11; B: /; C: 1; D: /

Cc1ccc(S(=O)(=O)N(C)C[C@H]2OCCCC[C@H](C)Oc3ccc(NS(=O)(=O)c4ccccc4)cc3C(=O)N([C@@H](C)CO)C[C@@H]2C)cc1
  A: -5; B: 24; C: 0; D: 4

COc1ccc(C#Cc2ccc([C@@H]3[C@@H](CO)N4CCCCN(S(=O)(=O)c5cn(C)cn5)C[C@H]34)cc2)cc1
  A: 43*; B: 0; C: 0; D: 2

COc1cccc(-c2ccc([C@@H]3[C@@H](CO)N4CCCCN(S(=O)(=O)c5cn(C)cn5)C[C@H]34)cc2)c1
  A: 73*; B: 12; C: 1; D: 68

CCNC(=O)[C@H]1[C@H](CO)[C@H]2Cn3c(ccc(-c4ccccc4)c3=O)[C@@H]1N2Cc1cccnc1
  A: 4; B: -18; C: 0; D: -1

CN1C(=O)c2cc(NC(=O)c3ccc(C#N)cc3)ccc2OC[C@H]2O[C@@H](CC(=O)NC3Cc4ccccc4C3)CC[C@@H]21
  A: 75*; B: -3; C: 0; D: -1

CN1C(=O)c2cc(NC(=O)c3ccno3)ccc2OC[C@H]2O[C@@H](CC(=O)NC3Cc4ccccc4C3)CC[C@@H]21
  A: 53*; B: 31; C: 0; D: -1

CN1C(=O)c2cc(NC(=O)c3ccc(C(F)(F)F)cc3)ccc2OC[C@H]2O[C@@H](CC(=O)NC3Cc4ccccc4C3)CC[C@H]21
  A: -3; B: /; C: 0; D: -2

COc1ccccc1-c1cnc2c(c1)C(=O)N([C@@H](C)CO)C[C@@H](C)[C@@H](CN(C)Cc1ccc(F)cc1)O2
  A: 1; B: -5; C: 0; D: -3

C[C@H]1CN([C@@H](C)CO)C(=O)c2cc(NS(C)(=O)=O)ccc2O[C@@H]1CN(C)C(=O)Nc1ccc(F)cc1
  A: 5; B: 10; C: /; D: -1

COc1ccc(NC(=O)N(C)C[C@H]2Oc3ccc(NC(=O)CCC(F)(F)F)cc3C(=O)N([C@@H](C)CO)C[C@@H]2C)cc1
  A: 2; B: 9; C: -1; D: 1

C[C@@H]1CN([C@@H](C)CO)C(=O)c2cc(N(C)C)ccc2O[C@H]1CN(C)C(=O)NC1CCCCC1
  A: -1; B: /; C: -1; D: 0

O=C(c1ccccc1)N1C[C@H]2[C@@H](c3ccccc31)[C@@H](CO)N2C(=O)c1ccccn1
  A: 2; B: -11; C: 0; D: -1

O=C(Nc1ccccc1)N1C[C@@H]2[C@H](c3ccccc31)[C@@H](CO)N2C(=O)c1ccccn1
  A: 71*; B: 4; C: 0; D: -2

CN1C[C@@H]2[C@H](c3ccccc31)[C@@H](CO)N2Cc1ccccc1
  A: 44*; B: 0; C: 0; D: 2

CN1C[C@H]2[C@@H](c3ccccc31)[C@H](CO)N2C(=O)c1ccccn1
  A: 28*; B: 11; C: 0; D: 1

O=C(c1ccccc1)N1C[C@H]2[C@@H](c3ccccc31)[C@H](CO)N2C(=O)c1ccccn1
  A: 25*; B: -6; C: 0; D: 0

CN1C[C@@H]2[C@H](c3ccccc31)[C@H](CO)N2Cc1ccccc1
  A: /; B: -1; C: 0; D: 0

CO[C@H]1CN(C)C(=O)c2ccc(NS(=O)(=O)c3ccc(F)cc3)cc2OC[C@H](C)NC[C@@H]1C
  A: 17; B: /; C: 0; D: /

COc1ccc(NC(=O)Nc2ccc3c(c2)C(=O)N([C@H](C)CO)C[C@@H](C)[C@@H](CN(C)C(=O)C2CCCCC2)OCCCC[C@H](C)O3)cc1
  A: 46*!; B: 7; C: 2; D: 2

COc1ccc(NC(=O)Nc2ccc3c(c2)C(=O)N([C@@H](C)CO)C[C@@H](C)[C@H](CN(C)C(=O)C2CCCCC2)OCCCC[C@H](C)O3)cc1
  A: -13; B: -5; C: 0; D: 2

COc1ccc(NC(=O)Nc2ccc3c(c2)C(=O)N([C@H](C)CO)C[C@H](C)[C@@H](CN(C)C(=O)C2CCCCC2)OCCCC[C@@H](C)O3)cc1
  A: 32*; B: -4; C: 0; D: 3

COc1ccc(NC(=O)Nc2ccc3c(c2)C(=O)N([C@H](C)CO)C[C@H](C)[C@H](CN(C)C(=O)C2CCCCC2)OCCCC[C@H](C)O3)cc1
  A: 7; B: 6; C: 1; D: 1

COc1ccc(NC(=O)Nc2ccc3c(c2)C(=O)N([C@@H](C)CO)C[C@@H](C)[C@H](CN(C)C(=O)C2CCCCC2)OCCCC[C@@H](C)O3)cc1
  A: 22*; B: -6; C: 0; D: 2

CCOC(=O)NC(=S)Nc1cccc(C)n1
  A: 13; B: -2; C: 0; D: -1

CCOC(=O)NC(=S)Nc1ccc(C(C)(C)C)cc1
  A: ?; B: -6; C: /; D: 173*

O=C(C[C@@H]1C=C[C@@H](NS(=O)(=O)c2ccccc2)[C@@H](CO)O1)N1CCC(Cc2ccccc2)CC1
  A: -3; B: /; C: 0; D: /

COc1ccc(O[C@H]2C=C[C@@H](c3ccccc3)O[C@@H]2CO/N=C(\C)CCN2CCCCc3nc(C)c(C)cc32)cc1
  A: 36*; B: /; C: 2; D: /

Cc1noc(C)c1S(=O)(=O)Nc1ccc2c(c1)C(=O)N([C@H](C)CO)C[C@@H](C)[C@@H](CN(C)C(=O)Nc1ccc(C(F)(F)F)cc1)OCCCC[C@@H](C)O2
  A: ?; B: -11; C: 0; D: 3

Brc1ccc(-c2nnc(-c3cccnc3)o2)cc1
  A: 82*; B: /; C: 2; D: /

# Record cards, as listed above:
# Entry for `CN1C[C@@H]2[C@H](c3ccccc31)[C@H](CO)N2Cc1ccccc1` = DENV2 CPE rescue = /; Yeast UUG start = -1; E-sel inducer = 0; Cneo AK release = 0
# Entry for `COc1ccc(NC(=O)Nc2ccc3c(c2)C(=O)N([C@H](C)CO)C[C@@H](C)[C@@H](CN(C)C(=O)C2CCCCC2)OCCCC[C@H](C)O3)cc1` = DENV2 CPE rescue = 46*!; Yeast UUG start = 7; E-sel inducer = 2; Cneo AK release = 2
